{"source": "the supplement of paper PMC9254222", "key": {"[1]": {"tested_on": "HEK293T (UBE3A T485A transfected, BAR Wnt reporter)", "experiment": "Renilla luciferase signal (cell health) relative to plate median (fold (linear ratio)); higher = higher Renilla signal", "settings": "24 h", "method_in_brief": "(§1)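 Wnt activity (firefly/Renilla ratio) and cell health (raw Renilla) were read with Dual-Glo luciferase and median-centred plate by plate. HEK293T cells, at 4500 cells/well in white 384-well plates with DMEM plus 10% FBS at 37°C and 5% CO2, carried a transfected BAR firefly luciferase Wnt reporter, TK-Renilla and an expression plasmid. The chemicals were applied by robot at 0.01–100 uM for 24 h, beginning four hours after transfection, and results were averaged across four biological replicates.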"}, "[2]": {"tested_on": "HEK293T (UBE3A T485A transfected, BAR Wnt reporter)", "experiment": "Wnt reporter firefly/Renilla luciferase ratio relative to plate median (fold (linear ratio)); higher = more Wnt/beta-catenin reporter activation", "settings": "24 h", "method_in_brief": "as §1"}}, "note": "For some of these results: This list holds what a sample rich in highest values left over. The list shows a part of the results, in another mix than the full data."}
{"compound": "CCOc1nc(C(Cl)(Cl)Cl)ns1", "note": "[Etridiazole]", "values": [{"measurement": "Renilla luciferase signal", "setting": "[1]; concentration: 0.01 uM", "value": 0.92}, {"measurement": "Renilla luciferase signal", "setting": "[1]; concentration: 0.1 uM", "value": 1.09}, {"measurement": "Renilla luciferase signal", "setting": "[1]; concentration: 1 uM", "value": 1.03}, {"measurement": "Renilla luciferase signal", "setting": "[1]; concentration: 10 uM", "value": 1.12}, {"measurement": "Renilla luciferase signal", "setting": "[1]; concentration: 100 uM", "value": 1.7}, {"measurement": "Wnt reporter firefly/Renilla luciferase ratio", "setting": "[2]; concentration: 0.01 uM", "value": 1.25}, {"measurement": "Wnt reporter firefly/Renilla luciferase ratio", "setting": "[2]; concentration: 0.1 uM", "value": 1.14}, {"measurement": "Wnt reporter firefly/Renilla luciferase ratio", "setting": "[2]; concentration: 1 uM", "value": 0.971}, {"measurement": "Wnt reporter firefly/Renilla luciferase ratio", "setting": "[2]; concentration: 10 uM", "value": 1.07}, {"measurement": "Wnt reporter firefly/Renilla luciferase ratio", "setting": "[2]; concentration: 100 uM", "value": 1.45}]}
